Data published in ChEMBL document CHEMBL4609986 (Bioorg Med Chem, 2020).

Sequences of proteins named here, by UniProt entry; tags and fusion partners are left off. A change or cut given only in a name is not applied to a line headed by its entry.
UniProt Q14680: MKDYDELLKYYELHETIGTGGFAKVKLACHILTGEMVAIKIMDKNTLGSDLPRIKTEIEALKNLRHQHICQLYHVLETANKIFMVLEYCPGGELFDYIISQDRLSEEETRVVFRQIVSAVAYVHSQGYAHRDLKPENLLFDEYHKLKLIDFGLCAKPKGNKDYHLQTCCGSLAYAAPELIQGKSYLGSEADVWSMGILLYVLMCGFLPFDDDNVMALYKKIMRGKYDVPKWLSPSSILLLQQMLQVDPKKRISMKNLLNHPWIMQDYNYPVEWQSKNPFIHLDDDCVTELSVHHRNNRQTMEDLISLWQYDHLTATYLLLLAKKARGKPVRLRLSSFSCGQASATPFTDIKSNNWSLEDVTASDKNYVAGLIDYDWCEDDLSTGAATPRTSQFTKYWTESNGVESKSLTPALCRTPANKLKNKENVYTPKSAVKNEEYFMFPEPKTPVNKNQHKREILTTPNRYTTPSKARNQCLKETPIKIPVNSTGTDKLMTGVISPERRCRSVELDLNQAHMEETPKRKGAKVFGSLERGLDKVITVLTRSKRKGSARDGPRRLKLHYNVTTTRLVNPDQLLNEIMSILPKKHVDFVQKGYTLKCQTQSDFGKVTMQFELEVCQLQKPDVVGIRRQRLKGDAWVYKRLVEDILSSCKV

Molecular target: Maternal embryonic leucine zipper kinase (Homo sapiens, UniProt Q14680)
Assay: Binding affinity to wild-type human full length MELK (M1 to V651 residues) expressed in bacterial expression system by Kinomescan method

Kd: 0.015 µM
Structure (SMILES): CC(=O)c1cnc2ccc(-c3cc(Cl)c(O)c(Cl)c3)nc2c1N[C@H]1CC[C@H](CN(C)C)CC1
